Earlier results in US20060258582A1, “Method of treating myelodysplastic syndromes” (Scios, Inc., priority 2004, published 2006).

Sequences of proteins named here, by UniProt entry; tags and fusion partners are left off.
UniProt Q16539, whole entry: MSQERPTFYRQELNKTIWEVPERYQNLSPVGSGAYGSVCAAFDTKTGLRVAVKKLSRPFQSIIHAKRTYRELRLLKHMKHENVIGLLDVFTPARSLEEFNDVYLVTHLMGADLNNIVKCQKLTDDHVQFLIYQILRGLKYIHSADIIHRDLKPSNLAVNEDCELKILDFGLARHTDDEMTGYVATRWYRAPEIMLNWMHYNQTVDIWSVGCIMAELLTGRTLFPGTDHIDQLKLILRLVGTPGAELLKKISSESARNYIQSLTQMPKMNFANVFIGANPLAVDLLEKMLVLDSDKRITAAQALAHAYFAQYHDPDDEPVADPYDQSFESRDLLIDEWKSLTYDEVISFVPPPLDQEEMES

Target: p38 MAPK (Homo sapiens, UniProt Q16539)
Conditions: previous studies; pharmacological inhibition of p38 MAPK; cited from earlier work

Oc1ccc(-c2nc(-c3ccc(F)cc3)c(-c3ccncc3)[nH]2)cc1 [SB 202190]
myelosuppresion caused by IFN and TGF β: able to reverse
